Protein sequences, listed by entry. Tags and fused reporters are not part of them. Lines headed by an entry give the natural chain unless they say otherwise; changes in a name come on top.
UniProt Q2SWW9: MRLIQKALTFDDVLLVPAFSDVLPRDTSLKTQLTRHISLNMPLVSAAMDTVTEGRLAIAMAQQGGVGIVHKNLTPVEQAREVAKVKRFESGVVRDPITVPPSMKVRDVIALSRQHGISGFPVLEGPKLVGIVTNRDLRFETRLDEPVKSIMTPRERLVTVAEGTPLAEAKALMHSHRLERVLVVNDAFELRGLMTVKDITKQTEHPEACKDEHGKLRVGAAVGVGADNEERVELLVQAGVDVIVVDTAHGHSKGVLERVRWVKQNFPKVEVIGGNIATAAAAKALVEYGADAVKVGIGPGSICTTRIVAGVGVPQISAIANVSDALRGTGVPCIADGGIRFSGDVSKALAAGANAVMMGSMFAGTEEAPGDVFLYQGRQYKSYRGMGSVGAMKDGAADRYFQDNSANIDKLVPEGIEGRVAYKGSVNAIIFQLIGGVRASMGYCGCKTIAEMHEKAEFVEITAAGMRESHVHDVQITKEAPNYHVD

In PMC4338043, “Two Classes of Bacterial IMPDHs according to Their Quaternary Structures and Catalytic Properties” (2015):

Target: IMPDHbt (Burkholderia thailandensis, UniProt Q2SWW9)
Experiment: ATP-γ-AmNS fluorescence and fluorescence anisotropy binding
Conditions: fluorescence intensity, emission maximum and anisotropy unchanged

“Adenosine-5′-triphosphate-γ-(sulfo-1-naphtyl)amide, triethylammonium salt” was tested, and the “binding of ATP-γ-AmNS to the enzyme” value was “does not bind”.
